Source: patent US6492381B1, “Tricyclic carbamate compounds useful for inhibition of G-protein function and for treatment of proliferative diseases” (Schering Corp., priority 1993, dated 2002)

Chains of the proteins cited; added tags and fusions are not shown.
UniProt Q02293, whole entry: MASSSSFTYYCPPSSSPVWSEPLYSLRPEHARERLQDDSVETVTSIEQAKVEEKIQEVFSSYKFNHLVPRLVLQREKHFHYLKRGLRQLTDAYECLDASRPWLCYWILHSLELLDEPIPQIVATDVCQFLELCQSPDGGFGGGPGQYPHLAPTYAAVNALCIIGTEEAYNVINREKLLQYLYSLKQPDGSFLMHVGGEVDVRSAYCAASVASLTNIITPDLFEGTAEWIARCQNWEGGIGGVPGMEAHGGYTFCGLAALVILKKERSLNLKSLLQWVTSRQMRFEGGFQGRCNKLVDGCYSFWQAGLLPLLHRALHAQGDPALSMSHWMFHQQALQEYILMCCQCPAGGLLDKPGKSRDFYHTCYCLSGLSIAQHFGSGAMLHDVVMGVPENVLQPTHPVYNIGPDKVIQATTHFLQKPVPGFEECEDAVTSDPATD

Biological target: T1, farnesyl protein transferase (FPT) (Rattus norvegicus, UniProt Q02293+Q04631)
T1 construct: were partially purified from rat brain by ammonium sulfate fractionation followed by Q-Sepharose; from tissue; host or cells: rat brain
Assay: In vitro enzyme assay: inhibition of farnesyl protein transferase
Type: biochemical
Experimental: 1. In vitro enzyme assays: Inhibition of farnesyl protein transferase and geranylgeranyl protein transferase.
Human farnesyl protein transferase was also expressed in E. coli, using cDNA clones encoding both the α and β subunits. […] Two forms of val^12-Ha-Ras protein were prepared as substrates for these enzymes, differing in their carboxy terminal sequence. One form terminated in cysteine-valine-leucine-serine (Ras-CVLS) the other in cystein-valine-leucine-leucine (Ras-CVLL). Ras-CVLS is a substrate for the farnesyl protein transferase while Ras-CVLL is a substrate for geranylgeranyl protein transferase I. The cDNAs encoding these proteins were constructed so that the proteins contain an amino-terminal extension of 6 histidine residues. Both proteins were expressed in Escherichia coli and purified using metal chelate affinity chromatography. The radiolabelled isoprenyl pyrophosphate substrates, [^3H]farnesyl pyrophosphate and [^3H]geranylgeranyl pyrophosphate, were purchased from DuPont/New England Nuclear.
The reaction was allowed to proceed for 30 minutes at room temperature and then stopped with 0.5 ml of 4% sodium dodecyl sulfate (SDS) followed by 0.5 ml of cold 30% trichloracetic acid (TCA). […] Percent inhibition was calculated relative to the DMSO vehicle control.

In the case of `CCOC(=O)N1CCC(C2c3ccc(Cl)cc3C=Cc3cccnc32)CC1` (stereo not shown) [Compound 620.00, 8-chloro-11-(1-ethoxycarbonyl-4-piperidinyl)-11H-benzo[5,6]cyclohepta[1,2-b]pyridine], the IC50 is reported as 8.9 µM.
